Biological target: Fe(3+)-Zn(2+) purple acid phosphatase (Phaseolus vulgaris, UniProt P80366)

Protein sequences, listed by entry. Tags and fused reporters are not part of them.
UniProt P80366, whole entry, looked up: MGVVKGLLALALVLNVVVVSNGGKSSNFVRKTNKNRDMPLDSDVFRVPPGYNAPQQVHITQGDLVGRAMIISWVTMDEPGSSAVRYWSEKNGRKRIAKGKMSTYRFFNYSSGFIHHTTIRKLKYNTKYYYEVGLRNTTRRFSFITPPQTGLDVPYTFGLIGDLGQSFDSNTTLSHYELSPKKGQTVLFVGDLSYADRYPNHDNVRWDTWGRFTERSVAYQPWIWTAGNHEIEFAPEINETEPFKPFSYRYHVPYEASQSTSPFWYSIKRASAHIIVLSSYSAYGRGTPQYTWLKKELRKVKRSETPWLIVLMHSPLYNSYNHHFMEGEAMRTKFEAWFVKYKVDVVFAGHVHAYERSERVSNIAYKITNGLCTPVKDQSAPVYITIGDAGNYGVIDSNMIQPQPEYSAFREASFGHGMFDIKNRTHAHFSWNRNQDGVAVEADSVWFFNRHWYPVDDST

Work on `CCP(=O)(O)O` yielded a Ki of 7.6 mM.
